Patent US7285554B2, “Pyrazole derivative” (Astellas Pharma Inc., priority 1997, dated 2007)

System: IL-2 production from Jurkat cells
Assay: cells
Details: Homo sapiens, read-out: IL-2 production inhibition IC50 value

Row | Compound | IC50
1 | CCOC(=O)c1cnn(-c2ccc(NC(=O)C(Cl)=C(Cl)Cl)cc2)c1C(F)(F)F [D] | ≤ 1000 nM
2 | Cc1nnsc1C(=O)Nc1ccc(-n2nc(C(F)(F)F)cc2C(F)(F)F)cc1 [A] | ≤ 1000 nM
